From patent US7198811B2, “Compositions for the preservation of fruits and vegetables” (University of Guelph, priority 2002, dated 2007) come the findings set out here.

SMILES strings stand for the structures.

For this assay, the system named is Vista Cherries. The assay is described as follows: Postharvest dips of compositions or individual components on Vista cherries. Format: in vivo. Conditions: dipped 2.5 min, concentration as printed per treatment; stored 4° C. in air.

For `c1ccc(CNc2ncnc3nc[nH]c23)cc1` [BA, benzyladenine], the “Soluble Solids (%) 4 weeks” value is listed as 16.4%.

Regarding `CC(C)=CCC/C(C)=C/CO` [Geraniol], the “Soluble Solids (%) 2 weeks” value is reported as 16.8%.

In the case of `CC(=O)OC/C=C(\C)CCC=C(C)C` [Geranyl Acetate], the “Soluble Solids (%) 4 weeks” value was determined as 14.6%.
